Measured values as given in PubChem BioAssay (NCI).
The list shows a part of the results, in another mix than the full data.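 Compound tested at a single concentration for 48 hours in 96-well plates; a percent growth value below 10 was scored as active.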 Activity calls are given as the source filed them.

Key:
Experiment in all cases: NCI-60 one-dose screen, 48 h (100 = growth as untreated, 0 = no growth, -100 = all killed)
Settings in all cases: 10 µM unless noted
SK-MEL-2 melanoma = test system: SK-MEL-2 melanoma
SN12C renal = test system: SN12C renal
UO-31 renal = test system: UO-31 renal
TK-10 renal = test system: TK-10 renal
ACHN renal = test system: ACHN renal
CAKI-1 renal = test system: CAKI-1 renal
A498 renal = test system: A498 renal
HL-60(TB) leukemia = test system: HL-60(TB) leukemia
EKVX NSCLC = test system: EKVX NSCLC
CCRF-CEM leukemia = test system: CCRF-CEM leukemia

Measured: growth

CN(C)P(=O)(Nc1ccccn1)N(C)C
inactive: SK-MEL-2 melanoma 104% | SN12C renal 99.6% | UO-31 renal 93.7% | TK-10 renal 104% | ACHN renal 104% | CAKI-1 renal 101% | A498 renal 90.7% | HL-60(TB) leukemia 95.5%

O=P(Cl)(N1CCCCCC1)N1CCCCCC1
inactive: SK-MEL-2 melanoma 103% | EKVX NSCLC 97.5% | SN12C renal 101% | UO-31 renal 94.8% | TK-10 renal 96.9% | ACHN renal 103% | CAKI-1 renal 99.6% | HL-60(TB) leukemia 100% | CCRF-CEM leukemia 113%

CC(Cc1ccccc1)N(CCCl)Cc1ccccc1 (stereo unspecified)
inactive: SK-MEL-2 melanoma 101% | EKVX NSCLC 98% | UO-31 renal 94.6% | TK-10 renal 90% | ACHN renal 104% | CAKI-1 renal 94.4% | A498 renal 95.6% | HL-60(TB) leukemia 99.1% | CCRF-CEM leukemia 107%

Cn1c(COc2ccc([N+](=O)[O-])cc2[N+](=O)[O-])cnc1[N+](=O)[O-]
inactive: SK-MEL-2 melanoma 97.2% | EKVX NSCLC 83% | SN12C renal 104% | UO-31 renal 72.5% | TK-10 renal 110% | ACHN renal 103% | A498 renal 99% | HL-60(TB) leukemia 108% | CCRF-CEM leukemia 105%

CCOCCN(CCCl)Cc1ccccc1
inactive: SK-MEL-2 melanoma 94.6% | EKVX NSCLC 107% | SN12C renal 101% | UO-31 renal 91.4% | TK-10 renal 92.7% | ACHN renal 103% | A498 renal 109% | HL-60(TB) leukemia 92.1% | CCRF-CEM leukemia 98.1%

O=[As]1(O)c2ccccc2-c2ccccc21
inactive: SK-MEL-2 melanoma 126% | EKVX NSCLC 104% | SN12C renal 96.1% | UO-31 renal 99.2% | TK-10 renal 112% | ACHN renal 110% | CAKI-1 renal 91.4% | HL-60(TB) leukemia 89.6% | CCRF-CEM leukemia 72%

O=P1(N(CCCl)CCCl)Nc2ccccc2N1
inactive: SK-MEL-2 melanoma 115% | EKVX NSCLC 104% | SN12C renal 106% | UO-31 renal 98.3% | TK-10 renal 120% | CAKI-1 renal 106% | A498 renal 98.2% | HL-60(TB) leukemia 109% | CCRF-CEM leukemia 99.1%

CCOP(=O)(Nc1ccccc1Cl)OCC
inactive: SK-MEL-2 melanoma 121% | EKVX NSCLC 91.6% | SN12C renal 112% | UO-31 renal 60.6% | TK-10 renal 117% | A498 renal 116% | HL-60(TB) leukemia 83.9% | CCRF-CEM leukemia 109%

N#CC(C#N)=C(C#N)N(CCCl)CCCl
inactive: SK-MEL-2 melanoma 107% | EKVX NSCLC 113% | SN12C renal 93.4% | UO-31 renal 96.9% | TK-10 renal 106% | ACHN renal 103% | CAKI-1 renal 92.9% | HL-60(TB) leukemia 96.1% | CCRF-CEM leukemia 85.2%

ClCCNC(Cc1ccccc1)c1ccccc1 (stereo unspecified)
inactive: SK-MEL-2 melanoma 97.3% | EKVX NSCLC 93.9% | UO-31 renal 92.1% | TK-10 renal 97.4% | ACHN renal 100% | CAKI-1 renal 92.5% | A498 renal 53.7% | HL-60(TB) leukemia 101% | CCRF-CEM leukemia 114%

CCN(CCCl)C1c2ccccc2-c2ccccc21
inactive: SK-MEL-2 melanoma 92.3% | EKVX NSCLC 102% | SN12C renal 92.5% | UO-31 renal 84% | TK-10 renal 85.3% | ACHN renal 101% | A498 renal 108% | HL-60(TB) leukemia 93% | CCRF-CEM leukemia 102%

ClCCN1CCn2cnc3ncnc-3c21
inactive: SK-MEL-2 melanoma 98.2% | EKVX NSCLC 108% | SN12C renal 102% | UO-31 renal 89.8% | TK-10 renal 102% | ACHN renal 104% | A498 renal 110% | HL-60(TB) leukemia 105% | CCRF-CEM leukemia 111%

CCCCOP(N)(=O)OCCCC
inactive: SK-MEL-2 melanoma 96.8% | SN12C renal 99.5% | UO-31 renal 81.6% | TK-10 renal 95.1% | ACHN renal 91.6% | CAKI-1 renal 101% | A498 renal 105% | HL-60(TB) leukemia 102%

CCN(CCI)Cc1cccc2ccccc12
inactive: SK-MEL-2 melanoma 93.4% | EKVX NSCLC 106% | SN12C renal 94.6% | UO-31 renal 88.7% | TK-10 renal 95% | ACHN renal 105% | A498 renal 105% | HL-60(TB) leukemia 93.3% | CCRF-CEM leukemia 96.7%

CN(CCCl)CCC(=O)c1ccccc1
inactive: SK-MEL-2 melanoma 97.3% | EKVX NSCLC 101% | SN12C renal 102% | UO-31 renal 91.5% | TK-10 renal 95.4% | ACHN renal 98.2% | A498 renal 94.5% | HL-60(TB) leukemia 72.1% | CCRF-CEM leukemia 80.4%

CCCNC(=O)c1ccc(N(CCCl)CCCl)cc1
inactive: SK-MEL-2 melanoma 110% | EKVX NSCLC 101% | SN12C renal 101% | UO-31 renal 83.6% | TK-10 renal 110% | ACHN renal 101% | A498 renal 107% | HL-60(TB) leukemia 118% | CCRF-CEM leukemia 71.7%

S=P(Cl)(N1CCCCCC1)N1CC1 (stereo unspecified)
inactive: SK-MEL-2 melanoma 104% | EKVX NSCLC 96.3% | SN12C renal 101% | UO-31 renal 82.5% | TK-10 renal 97.7% | ACHN renal 105% | CAKI-1 renal 88.7% | HL-60(TB) leukemia 105% | CCRF-CEM leukemia 105%

CN(C)P1(Cl)=NP(Cl)(N(C)C)=NP(Cl)(N(C)C)=N1 (stereo unspecified)
inactive: SK-MEL-2 melanoma 95.8% | EKVX NSCLC 95.5% | SN12C renal 103% | UO-31 renal 84.8% | TK-10 renal 87.6% | A498 renal 75.9% | HL-60(TB) leukemia 69% | CCRF-CEM leukemia 97.3%

ClP1(Cl)=NP(Cl)(Cl)=NP(c2ccccc2)(c2ccccc2)=N1
inactive: SK-MEL-2 melanoma 100% | EKVX NSCLC 102% | SN12C renal 105% | UO-31 renal 85.3% | TK-10 renal 83.8% | A498 renal 95.9% | HL-60(TB) leukemia 84.6%

O=[As](O)(c1cccc(O)c1)c1cccc(O)c1
inactive: SK-MEL-2 melanoma 112% | EKVX NSCLC 109% | SN12C renal 95.4% | UO-31 renal 99.2% | TK-10 renal 110% | ACHN renal 100% | A498 renal 97.1% | HL-60(TB) leukemia 110% | CCRF-CEM leukemia 89%

Nc1cccc([As](=O)(O)c2ccccc2)c1
inactive: SK-MEL-2 melanoma 99.5% | EKVX NSCLC 118% | SN12C renal 100% | UO-31 renal 93.5% | TK-10 renal 112% | ACHN renal 105% | A498 renal 96.9% | HL-60(TB) leukemia 106% | CCRF-CEM leukemia 103%

ClCCN(CCc1ccccc1)Cc1ccccc1
inactive: SK-MEL-2 melanoma 99.4% | EKVX NSCLC 99.7% | UO-31 renal 93.7% | TK-10 renal 90.1% | ACHN renal 105% | CAKI-1 renal 101% | A498 renal 94.4% | HL-60(TB) leukemia 98.8% | CCRF-CEM leukemia 102%

O=C(O)CCc1ccc(N(CCCl)CCCl)cc1
inactive: SK-MEL-2 melanoma 110% | EKVX NSCLC 94.3% | SN12C renal 92.2% | UO-31 renal 89.9% | TK-10 renal 101% | ACHN renal 97.7% | HL-60(TB) leukemia 89.8% | CCRF-CEM leukemia 74.9%

O=[As](O)(c1ccccc1)c1ccc(O)cc1
inactive: SK-MEL-2 melanoma 91.6% | EKVX NSCLC 103% | SN12C renal 115% | UO-31 renal 90.8% | TK-10 renal 128% | ACHN renal 103% | A498 renal 97.3% | HL-60(TB) leukemia 93.1% | CCRF-CEM leukemia 96.4%

NCCNCCCl
inactive: SK-MEL-2 melanoma 109% | EKVX NSCLC 105% | SN12C renal 97.2% | UO-31 renal 94.1% | TK-10 renal 110% | ACHN renal 96.6% | HL-60(TB) leukemia 67.6% | CCRF-CEM leukemia 89.9%

O=C(CCC(=O)Oc1c(Cl)cc([N+](=O)[O-])cc1[N+](=O)[O-])Oc1c(Cl)cc([N+](=O)[O-])cc1[N+](=O)[O-]
inactive: SK-MEL-2 melanoma 121% | EKVX NSCLC 119% | SN12C renal 107% | UO-31 renal 98% | TK-10 renal 98.4% | ACHN renal 108% | A498 renal 99.4% | HL-60(TB) leukemia 102% | CCRF-CEM leukemia 104%

CCN(CCCl)/N=N/c1nc2nc[nH]c(=O)c2[nH]1
inactive: SK-MEL-2 melanoma 103% | EKVX NSCLC 109% | SN12C renal 107% | UO-31 renal 86.4% | TK-10 renal 94.2% | ACHN renal 115% | A498 renal 106% | HL-60(TB) leukemia 99.4% | CCRF-CEM leukemia 115%

COC(=O)N(C)[N+](=O)[O-]
inactive: SK-MEL-2 melanoma 118% | SN12C renal 94.1% | UO-31 renal 97.3% | TK-10 renal 108% | ACHN renal 89.5% | CAKI-1 renal 95.8% | A498 renal 101% | HL-60(TB) leukemia 103%

Nc1cccc2c([As](=O)(O)O)cccc12
inactive: SK-MEL-2 melanoma 129% | EKVX NSCLC 109% | SN12C renal 100% | UO-31 renal 96.1% | TK-10 renal 122% | ACHN renal 110% | CAKI-1 renal 97% | HL-60(TB) leukemia 116% | CCRF-CEM leukemia 54.7%

CC(C)N(CCCl)/N=N/c1nc2nc[nH]c(=O)c2[nH]1
inactive: SK-MEL-2 melanoma 88.5% | EKVX NSCLC 105% | SN12C renal 107% | UO-31 renal 86.5% | TK-10 renal 92.1% | ACHN renal 108% | A498 renal 103% | HL-60(TB) leukemia 88.6% | CCRF-CEM leukemia 102%

C=CCOP(O)OCC=C
inactive: SK-MEL-2 melanoma 109% | EKVX NSCLC 101% | SN12C renal 103% | TK-10 renal 91.3% | ACHN renal 105% | CAKI-1 renal 91.5% | A498 renal 102% | HL-60(TB) leukemia 109% | CCRF-CEM leukemia 84.7%

CCCN(CCCl)C1c2ccccc2-c2ccccc21
inactive: SK-MEL-2 melanoma 99.1% | EKVX NSCLC 102% | SN12C renal 100% | UO-31 renal 87.9% | TK-10 renal 98.6% | ACHN renal 98.3% | A498 renal 109% | HL-60(TB) leukemia 94% | CCRF-CEM leukemia 101%

O=C(c1ccccc1)C(NCCCl)c1ccccc1 (stereo unspecified)
inactive: SK-MEL-2 melanoma 92.5% | EKVX NSCLC 104% | SN12C renal 101% | UO-31 renal 82.9% | TK-10 renal 85.4% | A498 renal 104% | HL-60(TB) leukemia 111% | CCRF-CEM leukemia 112%

C/C(N)=N/P(=O)(Oc1ccccc1)Oc1ccccc1
inactive: SK-MEL-2 melanoma 112% | SN12C renal 101% | UO-31 renal 78.7% | TK-10 renal 104% | ACHN renal 98.7% | CAKI-1 renal 99.1% | A498 renal 108% | HL-60(TB) leukemia 99.3% | CCRF-CEM leukemia 98.7%
